Assay results from ChEMBL document CHEMBL3616397, “Voltage-Gated Sodium Channels: Structure, Function, Pharmacology, and Clinical Indications” (J Med Chem, 2015).

Sequences of proteins named here, by UniProt entry; tags and fusion partners are left off.
UniProt Q15858, whole entry: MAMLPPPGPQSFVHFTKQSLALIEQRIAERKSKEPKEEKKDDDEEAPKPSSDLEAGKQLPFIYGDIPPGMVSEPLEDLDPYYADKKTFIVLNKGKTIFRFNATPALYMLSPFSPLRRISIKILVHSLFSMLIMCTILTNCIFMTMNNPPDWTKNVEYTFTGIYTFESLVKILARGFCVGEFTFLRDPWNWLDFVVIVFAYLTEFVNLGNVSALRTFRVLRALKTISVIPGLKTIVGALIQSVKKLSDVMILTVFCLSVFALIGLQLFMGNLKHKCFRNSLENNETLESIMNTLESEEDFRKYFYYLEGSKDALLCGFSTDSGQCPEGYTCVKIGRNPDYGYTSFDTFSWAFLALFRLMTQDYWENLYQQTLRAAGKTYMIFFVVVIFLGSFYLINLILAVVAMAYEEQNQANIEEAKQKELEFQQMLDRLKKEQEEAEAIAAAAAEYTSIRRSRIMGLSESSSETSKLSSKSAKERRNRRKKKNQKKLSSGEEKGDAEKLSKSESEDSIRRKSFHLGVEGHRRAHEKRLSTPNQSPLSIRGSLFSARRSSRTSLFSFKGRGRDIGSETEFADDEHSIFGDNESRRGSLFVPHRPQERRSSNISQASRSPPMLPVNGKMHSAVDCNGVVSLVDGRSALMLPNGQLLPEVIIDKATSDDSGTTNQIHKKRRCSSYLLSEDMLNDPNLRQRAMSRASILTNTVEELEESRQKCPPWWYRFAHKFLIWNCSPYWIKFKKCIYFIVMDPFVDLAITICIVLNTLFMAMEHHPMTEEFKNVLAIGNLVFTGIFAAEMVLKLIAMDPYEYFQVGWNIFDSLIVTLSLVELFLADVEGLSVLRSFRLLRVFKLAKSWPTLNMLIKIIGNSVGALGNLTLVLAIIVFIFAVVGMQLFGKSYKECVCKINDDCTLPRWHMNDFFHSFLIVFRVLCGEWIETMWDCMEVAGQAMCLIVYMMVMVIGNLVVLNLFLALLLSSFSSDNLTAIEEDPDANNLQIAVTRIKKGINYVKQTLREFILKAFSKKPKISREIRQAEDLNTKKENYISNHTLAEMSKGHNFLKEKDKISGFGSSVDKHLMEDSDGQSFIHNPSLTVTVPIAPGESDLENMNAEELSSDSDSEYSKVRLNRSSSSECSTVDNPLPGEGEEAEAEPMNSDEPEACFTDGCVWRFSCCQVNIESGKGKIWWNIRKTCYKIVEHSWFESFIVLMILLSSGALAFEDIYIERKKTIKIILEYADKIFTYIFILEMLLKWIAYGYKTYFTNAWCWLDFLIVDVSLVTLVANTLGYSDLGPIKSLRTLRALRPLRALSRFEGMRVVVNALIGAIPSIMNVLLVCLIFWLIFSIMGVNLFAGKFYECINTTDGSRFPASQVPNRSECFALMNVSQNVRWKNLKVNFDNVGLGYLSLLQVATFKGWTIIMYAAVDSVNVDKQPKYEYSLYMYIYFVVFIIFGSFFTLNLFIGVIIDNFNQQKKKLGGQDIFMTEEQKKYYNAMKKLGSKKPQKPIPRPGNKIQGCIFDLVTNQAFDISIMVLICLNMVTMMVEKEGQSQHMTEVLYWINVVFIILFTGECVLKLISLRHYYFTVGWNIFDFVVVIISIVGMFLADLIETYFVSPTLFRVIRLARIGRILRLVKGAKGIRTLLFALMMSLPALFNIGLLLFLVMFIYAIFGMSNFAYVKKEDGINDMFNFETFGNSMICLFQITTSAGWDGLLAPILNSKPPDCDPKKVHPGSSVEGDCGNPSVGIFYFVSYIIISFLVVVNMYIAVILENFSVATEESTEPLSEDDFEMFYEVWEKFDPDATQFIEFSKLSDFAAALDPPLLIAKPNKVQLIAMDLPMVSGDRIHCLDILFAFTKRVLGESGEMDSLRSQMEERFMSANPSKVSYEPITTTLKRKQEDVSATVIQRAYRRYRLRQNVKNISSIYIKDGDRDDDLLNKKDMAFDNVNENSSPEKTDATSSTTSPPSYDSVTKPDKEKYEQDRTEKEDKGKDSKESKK

Biological target: Sodium channel protein type 9 subunit alpha (Homo sapiens, UniProt Q15858)
Assay: Inhibition of human NaV1.7 channel expressed in HEK293 cells by patch clamp electrophysiology assay
Type: cell-based

Work on `O=S(=O)(Nc1ncns1)c1cc(F)c(OC[C@@H]2CNCC[C@H]2c2ccc(Cl)c(F)c2)cc1F` yielded an IC50 of 0.9 nM.
